Reference: patent US20260276643A1, “METHODS FOR PREDICTING AND IMPROVING THERAPEUTIC EFFICACY OF CANCER TREATMENTS AND METHODS FOR CANCER PROGNOSIS” (Università degli studi di Verona, priority 2023, published 2026)

System: CLDN18 expression in DANG cells
Test: CLDN18 exogenous regulation in vitro: CLDN18 staining of treated DANG cells
Assay type: cell-based, human
Details: extended experiment, FIG. 11

| Compound | CLDN18 expression (percentage of CLDN18+ cells) |
| --- | --- |
| N[C@@H](Cc1ccc([N+]([O-])(CCCl)CCCl)cc1)C(=O)O | with the exemption of CoCL2, PX-478 all induced CLDN18 expression in DANG cells |
| CoCl2 | with the exemption of CoCL2, PX-478 all induced CLDN18 expression in DANG cells |
